Laboratory results as given in ChEMBL document CHEMBL1126897, “Tyrphostins. 3. Structure-activity relationship studies of alpha-substituted benzylidenemalononitrile 5-S-aryltyrphostins” (J Med Chem, 1993).

Protein sequences, listed by entry. Tags and fused reporters are not part of them.
UniProt P00533, whole entry: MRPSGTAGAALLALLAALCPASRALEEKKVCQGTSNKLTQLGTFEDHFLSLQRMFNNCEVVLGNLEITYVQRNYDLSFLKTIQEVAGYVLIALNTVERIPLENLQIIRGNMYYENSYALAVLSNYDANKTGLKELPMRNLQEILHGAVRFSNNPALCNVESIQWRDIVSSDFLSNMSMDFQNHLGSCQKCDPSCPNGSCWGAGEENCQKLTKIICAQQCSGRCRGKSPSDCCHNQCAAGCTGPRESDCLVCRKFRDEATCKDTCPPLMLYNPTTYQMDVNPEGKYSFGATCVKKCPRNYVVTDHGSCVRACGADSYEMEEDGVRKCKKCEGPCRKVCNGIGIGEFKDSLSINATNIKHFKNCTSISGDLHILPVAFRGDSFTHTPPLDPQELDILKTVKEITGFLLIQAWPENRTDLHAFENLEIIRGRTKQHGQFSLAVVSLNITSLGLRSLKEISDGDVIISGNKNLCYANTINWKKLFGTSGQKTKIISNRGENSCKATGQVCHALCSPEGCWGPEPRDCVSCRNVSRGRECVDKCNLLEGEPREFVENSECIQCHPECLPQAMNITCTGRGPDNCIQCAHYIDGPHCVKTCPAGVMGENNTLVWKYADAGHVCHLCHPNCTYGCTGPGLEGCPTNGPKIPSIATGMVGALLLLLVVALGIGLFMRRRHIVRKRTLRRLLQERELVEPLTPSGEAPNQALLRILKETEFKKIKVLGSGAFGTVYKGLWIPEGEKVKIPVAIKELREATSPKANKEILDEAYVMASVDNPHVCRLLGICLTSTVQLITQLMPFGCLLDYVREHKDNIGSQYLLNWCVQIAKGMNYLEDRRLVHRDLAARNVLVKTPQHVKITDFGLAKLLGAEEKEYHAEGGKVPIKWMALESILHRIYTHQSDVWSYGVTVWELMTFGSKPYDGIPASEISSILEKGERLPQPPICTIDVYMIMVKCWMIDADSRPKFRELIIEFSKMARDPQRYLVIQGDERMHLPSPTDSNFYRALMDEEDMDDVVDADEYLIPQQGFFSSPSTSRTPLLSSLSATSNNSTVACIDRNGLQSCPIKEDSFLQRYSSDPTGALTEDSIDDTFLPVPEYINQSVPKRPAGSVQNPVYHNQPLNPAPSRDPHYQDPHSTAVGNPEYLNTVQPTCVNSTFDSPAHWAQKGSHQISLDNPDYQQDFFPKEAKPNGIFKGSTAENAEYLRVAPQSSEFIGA

Tests used:
[1] = target: T1, Epidermal growth factor receptor (Homo sapiens, UniProt P00533)
[2] = target: T1, Epidermal growth factor receptor; remark: listed apart in the source

| Structure (SMILES) | IC50 [1] | IC50 [2] |
| --- | --- | --- |
| COc1cc(/C=C(\C#N)C(N)=O)cc(CSC2=NCCS2)c1O | 16.3 µM | 8.8 µM |
| COc1cc(/C=C(\C#N)C(N)=O)cc(CSc2ccc(C)cc2)c1O | 8.7 µM | 1.75 µM |
